Laboratory results: US20040162235A1, “Delivery of siRNA to cells using polyampholytes” (priority 2003, published 2004)
Like-named read-outs stand apart in the source and are kept apart here.

Assay: Red blood cell (RBC) hemolysis assay
Format: cell-based
Details: 37° C., read-out: Percent Hemolysis
Description: C. […] RBCs were harvested by centrifuging whole blood for 4 min. They were washed three times with 100 mM dibasic sodium phosphate at the desired pH, and resuspended in the same buffer to yield the initial volume. They were diluted 10 times in the same buffer, and 200 μL of this suspension was used for each tube. This yields […] RBCs per tube. Each tube contained 800 μL of buffer, 200 μL of the RBC suspension, and the peptide with or without polymer. Each sample was then repeated to verify reproducibility. The tubes were incubated for 30 minutes in a 37° C. water bath. They were spun for 5 min at full speed in the microcentrifuge. Lysis was determined by measuring the absorbance of the supernatant at 541 nm, reflecting the amount of hemoglobin that had been released into the supernatant. Percent hemolysis was calculated assuming 100% lysis to be measured by the hemoglobin released by the red blood cells in water; controls of RBCs in buffer with no peptide were also run.

With `CC[C@H](C)[C@H](NC(=O)CNC(=O)CCC(=O)O)C(=O)NCC(=O)N[C@@H](C)C(=O)N[C@H](C(=O)N[C@@H](CC(C)C)C(=O)N[C@@H](CCCCNC(=O)CCC(=O)O)C(=O)N[C@H](C(=O)N[C@@H](CC(C)C)C(=O)N[C@H](C(=O)N[C@H](C(=O)NCC(=O)N[C@@H](CC(C)C)C(=O)N1CCC[C@H]1C(=O)N[C@@H](C)C(=O)N[C@@H](CC(C)C)C(=O)N[C@H](C(=O)N[C@@H](CO)C(=O)N[C@@H](Cc1c[nH]c2ccccc12)C(=O)N[C@H](C(=O)N[C@@H](CCCCNC(=O)CCC(=O)O)C(=O)N[C@@H](CCCNC(=N)N)C(=O)N[C@@H](CCCCNC(=O)CCC(=O)O)C(=O)N[C@@H](CCCNC(=N)N)C(=O)N[C@@H](CCC(N)=O)C(=O)N[C@@H](CCC(N)=O)C(=O)O)[C@@H](C)CC)[C@@H](C)CC)[C@@H](C)O)[C@@H](C)O)C(C)C)C(C)C` [Succinyl-Melittin] the hemolysis (pH 5.4, 30 minutes) was 5% and the hemolysis (pH 7.5, 30 minutes) was 2%.
